# Most compounds without a hit are left out; they make up all but 2.3% or so of the library.
# ARFGAP1 inh: inhibitors of rat ARFGAP1; inhibition, % at 16.5 µM; Q62848; Arfgap1-stimulated ARF1 GTP hydrolysis, GDP FP detection; actives 0.26% (n = 360,000);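 active means inhibition above a per-plate limit, mean inhibition of low control wells plus 3 SD, cut at about 25% in these data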
#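 System: truncated rat Arfgap1 GAP domain / Medium: HEPES-based buffer, pH 7.5 / Also added: N-terminally truncated human ARF1-GTP substrate / Incubation: enzyme reaction 120 min at 25 °C after 20 min preincubation / Measured by: FP of antibody-bound GDP Alexa 633 tracer, ex 620/em 688 nm / Replicates: singlicate, each compound tested once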
# MC4R antag cAMP: antagonists of human melanocortin 4 receptor (MC4R) | P32245 | MC4R-expressing cells, MTII-stimulated cAMP, LANCE TR-FRET | inhibition, % at 6.5 µM | actives 0.48% (n = 360,000) | AID 540295;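 active means inhibition above its plate's cutoff, the mean of tested wells on that plate plus 3 SD, cut at about 29% in these data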
#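 system = U2OS cells with stable human MC4R expression | also added = Melanotan II challenge after compound preincubation | dosing = one concentration, 6.5 µM nominal | incubation = compound 30 min, challenge 1 h, detection 1 h | measured by = TR-FRET with Eu-cAMP and labeled anti-cAMP, 671 nm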
# MC4R ag barr: human MC4R agonism via beta-arrestin | P32245 | U2OS MC4R beta-arrestin complementation, luminescence; percent of melanotan II response, DMSO zero | activation, % at 8.9 µM | actives 0.98% (n = 360,000);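 active means activation above a per-plate cutoff, the mean activation of sample wells on that plate plus 3 SD, cut at about 8% in these data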
# Yeast UUG start: modulators of yeast start codon fidelity, primary screen, whole organism, S. cerevisiae, single point, plate reader | S. cerevisiae UUG-firefly luciferase reporter, luminescence/redox ratio | activity score, % at 18.7 µM | hit rate 0.13% among 350,000;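 active = replicate mean at a twofold rise or more, about +100% in these data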;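 note: firefly luciferase made from a UUG start codon reports start codon fidelity; reporter light over untreated wells divided by growth signal over untreated wells; some hits fall short of that in this replicate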
# ASAP1 inh: inhibitors of human ASAP1 ArfGAP activity; Q9ULH1; AID 624377; ASAP1-stimulated ARF1 GTP hydrolysis, GDP FP detection; inhibition, % at 16.5 µM; actives 0.19% (n = 360,000); in the data active means inhibition above about 25%
# CendR NRP1 mod: NRP-1/CendR interaction modulation. actives 0.85% (n = 360,000). FAM-RPARPAR peptide binding to NRP-1, fluorescence polarization. inhibition, % at 25 µM. O14786;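 active means inhibition or corrected inhibition above about 18%, plus a signal ratio from 0.5 to 1.5, limit read from the data, passing the limit was not always enough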
# MC4R barr ag: human MC4R beta-arrestin agonism confirmation; shares compounds with MC4R ag barr; actives 31% (n = 2,400); activation, % at 8.9 µM; AID 602192; U2OS MC4R beta-arrestin recruitment, luminescence; scaled DMSO 0%, Melanotan II 100%;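 active means mean activation across replicates above the hit cutoff set in the earlier primary screen, cut at about 8% in these data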
# MOR DOR agonist: counter-screen for MC4R agonists: agonists of mu-delta opioid heterodimer; shares compounds with MC4R ag barr; AID 602194; activation, % at 9.2 µM; actives 5.8% (n = 2,400); U2OS PathHunter beta-arrestin, beta-gal luminescence; percent of deltorphin B response, DMSO zero;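 active means mean activation across replicates exceeds the hit threshold derived in the earlier primary screen, cut at about 18% in these data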
# Hits are given with their value; n = inactive; x = no result.
SMILES,ARFGAP1 inh,MC4R antag cAMP,MC4R ag barr,Yeast UUG start,ASAP1 inh,CendR NRP1 mod,MC4R barr ag,MOR DOR agonist
O=C(Nc1ccc(Cl)cc1)N[C@@H]1CC[C@H](CCNC(=O)c2ccccc2F)O[C@H]1CO,x,x,x,n,x,x,x,x
COc1cccc(-c2ccc(C#N)c(SCC(=O)NCc3ccco3)n2)c1,n,n,19,n,n,n,n,n
COc1ccc(-c2cc(-c3cccs3)c(C#N)c(SCC(=O)NCc3ccco3)n2)cc1,x,n,n,n,x,n,x,x
COC(=O)c1oc2ccc(Br)cc2c1NC(=O)c1ccccc1,n,n,30,n,n,n,16,n
COC(=O)c1oc2ccc(Br)cc2c1NC(=O)CN1CCN(C)CC1,n,n,n,n,n,n,x,x
Cc1ccc2nc(Nc3ccc4[nH]c(=O)[nH]c4c3)c(-n3nc(C)cc3C)nc2c1,n,n,34,n,n,n,29,n
CCOc1ccc(CN2CCN(Cc3[nH]c4ccccc4c3C)CC2CCO)cc1 (stereo unspecified),n,n,12,x,n,38,n,22
C[C@@H]1CN([C@H](C)CO)C(=O)c2cccc(NS(=O)(=O)c3ccccc3)c2O[C@@H]1CN(C)CC1CC1,x,x,x,n,x,x,x,x
CC(C)C(C(=O)NCC1CCCO1)N(C(=O)CNS(=O)(=O)c1ccc(F)cc1)C1CCCCC1 (stereo unspecified),n,n,n,n,n,n,x,x
O=S(=O)(NCC1CCCO1)c1ccc(S(=O)(=O)N(Cc2ccc(F)cc2)C2CCCCC2)cc1 (stereo unspecified),n,n,10,n,n,n,n,n
Cc1ccc(C)c(NC(=O)Cn2nc(-c3ccccc3)nc2-c2ccccc2)c1,n,n,n,x,n,n,x,x
Cc1ccc(NC(=O)Cn2nc(-c3ccccc3)nc2-c2ccccc2)c(C)c1,n,n,17,x,n,n,n,n
Cc1ccc(S(=O)(=O)Nc2ccc3c(c2)C(=O)N([C@@H](C)CO)C[C@@H](C)[C@H](CN(C)C(=O)CCC(F)(F)F)OCCCC[C@@H](C)O3)cc1,x,x,x,n,x,x,x,x
COc1cccc(COC(=O)c2ccc3c(c2)NC(=O)C(C)S3)c1OC (stereo unspecified),n,n,19,n,n,n,n,n
CC1Sc2ccc(C(=O)OCc3ccccc3Cl)cc2NC1=O (stereo unspecified),n,n,35,n,n,n,n,n
CC1Sc2ccc(C(=O)O)cc2NC1=O (stereo unspecified),n,n,n,n,n,n,x,x
COc1ccc(CNC(=O)c2ccc3c(c2)NC(=O)C(C)S3)cc1 (stereo unspecified),n,n,n,n,n,n,x,x
C[C@@H]1CN([C@@H](C)CO)C(=O)c2cc(NC(=O)C3CC3)ccc2O[C@@H]1CN(C)C(=O)Nc1ccccc1,x,x,x,n,x,x,x,x
C[C@@H]1CN([C@@H](C)CO)S(=O)(=O)c2ccc(-c3ccccc3F)cc2O[C@@H]1CN(C)Cc1ccncc1,x,x,x,n,x,x,x,x
COc1cccc(C#Cc2cnc3c(c2)C(=O)N([C@@H](C)CO)C[C@@H](C)[C@@H](CN(C)C(=O)C2CC2)O3)c1,x,x,x,n,x,x,x,x
CCC(C)c1ccc(NC(=S)NC2CCN(Cc3ccccc3)CC2)cc1 (stereo unspecified),n,n,15,x,n,n,22,n
CCc1ccc(NC(=S)NC2CCN(Cc3ccccc3)CC2)cc1,n,n,n,x,n,n,x,x
Cn1c(-c2ccc(Cl)cc2)ccc(C#N)c1=O,n,n,11,x,n,n,n,n
COc1ccc(NC(=O)Nc2cccc(Cl)c2Cl)c(OC)n1,n,n,23,n,n,n,n,n
O=C(CNC(=O)c1ccccc1)Nc1cccc(C(F)(F)F)c1,n,n,n,n,n,n,x,x
SMILES,ARFGAP1 inh,MC4R antag cAMP,MC4R ag barr,Yeast UUG start,ASAP1 inh,CendR NRP1 mod,MC4R barr ag,MOR DOR agonist
Cc1ccc(C(=O)NCC(=O)Nc2cccc(C(F)(F)F)c2)cc1,n,n,15,x,n,n,n,n
C[C@H](CO)N1C[C@H](C)[C@H](CN(C)S(=O)(=O)c2ccc(Cl)cc2)OCCCC[C@H](C)Oc2ccc(NS(=O)(=O)c3ccc(Cl)cc3)cc2C1=O,x,x,x,n,x,x,x,x
COc1ccc(-c2ccc3c(c2)[C@H]2[C@H](CCN2S(=O)(=O)c2ccccc2C)[C@H](CO)N3C)cc1,x,x,x,n,x,x,x,x
C/C(=N\Nc1nc2ccccc2[nH]1)c1ccc2c(c1)OCCO2,n,n,9.8,x,n,n,n,n
C/C(=N\Nc1nc2ccccc2[nH]1)c1ccc2c(c1)OCO2,n,n,15,n,n,n,n,n
C/C(=N\Nc1nc2ccccc2[nH]1)c1cc2ccccc2o1,n,n,n,x,n,n,x,x
O=C(Nc1cc(F)ccc1F)N1C[C@@H]2[C@H](c3ccccc31)[C@H](CO)N2Cc1ccncc1,x,x,x,n,x,x,x,x
COc1ccc(CN2C[C@@H](O)COC[C@@H]3O[C@@H](CC(=O)N4CCc5ccccc5C4)CC[C@H]32)cc1,x,x,x,n,x,x,x,x
O=C(CN1CCCC1)Nc1cccc(Cl)c1,n,n,n,n,n,n,x,x
O=C(CN1CCCCCCC1)Nc1cc(Cl)cc(Cl)c1,n,n,14,x,n,n,n,n
CCc1ccc2c(c1)cc(CN(C(=S)Nc1ccccc1C)C1CC1)c1nnnn12,n,n,12,n,n,n,n,n
C[C@H]1CN([C@@H](C)CO)C(=O)c2cc(C3=CCCCC3)cnc2O[C@@H]1CN(C)Cc1cccnc1,x,x,x,n,x,x,x,x
CC(=O)c1nn(-c2cccc(Br)c2)cc1C(=O)c1ccc(Br)cc1,n,n,n,n,n,n,x,x
CC(=O)c1nn(-c2cccc(Br)c2)cc1C(=O)c1ccc(C)cc1,n,n,35,n,n,n,n,n
COc1cccc(C(=O)Nc2nnc(-c3ccc(OC)cc3OC)s2)c1,n,n,n,n,n,n,x,x
COc1cccc(C(=O)NCc2ccc(-c3nc4ccccc4s3)cc2)c1,n,n,30,x,n,n,n,n
COc1cccc(C(=O)Nc2nnc(-c3ccccc3)s2)c1,n,n,13,n,n,n,n,n
COc1ccc(C(=O)NCc2ccc(-c3nc4ccccc4s3)cc2)cc1,n,n,n,n,n,n,x,x
COc1ccc(CNCc2cc3c(C(C)(C)C)nn(-c4ccccc4)c3[nH]c2=O)cc1,n,n,15,n,n,n,14,n
CCOC(=O)c1c(C)[nH]c(C(=O)OCc2ccc(C)cc2)c1C,n,n,n,n,n,n,x,x
